Laboratory results published in PubChem BioAssay AID1259354.
The list shows a part of the results, in another mix than the full data. Results filed as inconclusive are left out. Active and inactive are the calls of the source. No stated cut-off is given here; in the data, active means inhibition above about 30%; inconclusive means mostly about 10% to 28%; inactive means weaker than that.

The chains behind the UniProt entries cited, without tags or fusion partners.
UniProt Q01638, whole entry: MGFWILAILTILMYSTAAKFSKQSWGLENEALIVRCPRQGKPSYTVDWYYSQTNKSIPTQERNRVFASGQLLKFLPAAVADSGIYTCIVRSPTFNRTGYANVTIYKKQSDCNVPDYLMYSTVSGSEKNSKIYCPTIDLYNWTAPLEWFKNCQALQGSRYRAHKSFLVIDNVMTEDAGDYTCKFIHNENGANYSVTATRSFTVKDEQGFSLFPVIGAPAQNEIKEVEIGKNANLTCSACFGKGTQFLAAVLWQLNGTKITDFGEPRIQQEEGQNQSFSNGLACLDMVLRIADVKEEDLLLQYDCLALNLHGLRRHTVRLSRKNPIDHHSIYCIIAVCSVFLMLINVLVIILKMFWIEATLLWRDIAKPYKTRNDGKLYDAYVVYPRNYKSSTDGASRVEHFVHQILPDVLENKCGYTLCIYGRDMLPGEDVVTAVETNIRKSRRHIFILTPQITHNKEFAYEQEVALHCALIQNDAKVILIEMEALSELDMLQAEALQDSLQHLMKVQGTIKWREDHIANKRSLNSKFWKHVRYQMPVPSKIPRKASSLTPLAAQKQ
UniProt O95760, whole entry partner: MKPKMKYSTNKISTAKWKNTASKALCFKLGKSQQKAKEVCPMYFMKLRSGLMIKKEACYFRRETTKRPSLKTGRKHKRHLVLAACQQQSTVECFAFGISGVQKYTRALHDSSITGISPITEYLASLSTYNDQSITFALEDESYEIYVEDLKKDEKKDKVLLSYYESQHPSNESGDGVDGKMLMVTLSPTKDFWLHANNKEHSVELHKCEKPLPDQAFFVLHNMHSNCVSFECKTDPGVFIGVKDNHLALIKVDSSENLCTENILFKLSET

Biological target: Interleukin-1 receptor-like 1 (Homo sapiens) (UniProt Q01638)
Assay: inhibitors of human ST2 (IL1RL1) binding to IL-33, primary screen, biochemical, AlphaLISA (AID 1259354)
Settings: AlphaLISA ST2-Fc/biotin-IL-33 interaction, 1 h; at 17 µM; stronger effect = higher value

| Compound | inhibition |
| --- | --- |
| O=[N+]([O-])c1ccc(-n2ncc3c([N+](=O)[O-])cc([N+](=O)[O-])cc32)c([N+](=O)[O-])c1 | active: 61% |
| O=[N+]([O-])c1cc([N+](=O)[O-])c(C=Nc2ccccc2)c([N+](=O)[O-])c1 | active: 47% |
